Laboratory results from patent US20070043091A1, “Kv1.5-BLOCKER FOR THE SELECTIVE INCREASE OF ATRIAL CONTRACTILITY AND TREATMENT OF CARDIAC INSUFFICIENCY” (SANOFI-AVENTIS DEUTSCHLAND GMBH, priority 2004, published 2007).

Sequences of proteins named here, by UniProt entry; tags and fusion partners are left off.
UniProt P22460, whole entry: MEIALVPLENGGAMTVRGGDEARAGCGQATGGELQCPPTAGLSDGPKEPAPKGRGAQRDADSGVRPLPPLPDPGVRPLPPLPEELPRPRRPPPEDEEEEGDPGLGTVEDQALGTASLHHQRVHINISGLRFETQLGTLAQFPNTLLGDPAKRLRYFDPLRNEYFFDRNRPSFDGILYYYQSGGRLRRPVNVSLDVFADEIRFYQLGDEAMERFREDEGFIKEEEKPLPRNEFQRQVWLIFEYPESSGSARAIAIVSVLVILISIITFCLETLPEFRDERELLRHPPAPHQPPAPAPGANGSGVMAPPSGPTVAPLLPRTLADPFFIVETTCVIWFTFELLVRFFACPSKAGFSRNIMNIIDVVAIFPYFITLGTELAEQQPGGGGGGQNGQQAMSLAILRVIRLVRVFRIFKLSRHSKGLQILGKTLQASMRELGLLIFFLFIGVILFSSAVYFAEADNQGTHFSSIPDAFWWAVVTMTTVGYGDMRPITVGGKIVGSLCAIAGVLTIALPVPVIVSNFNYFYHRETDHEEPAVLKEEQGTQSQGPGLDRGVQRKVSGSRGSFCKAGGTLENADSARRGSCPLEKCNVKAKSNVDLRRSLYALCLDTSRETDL

How the values were obtained:
Human Kv1.5 channels = molecular target: T1, Human Kv1.5 channels (Homo sapiens, UniProt P22460); experiment: Determination of the activity on the Kv1.5 channel (two-microelectrode voltage clamp, Xenopus oocytes); type: cell-based; conditions: human Kv1.5 expressed in Xenopus oocytes, room temperature
T1 construct: expressed in transfected cells; host or cells: Xenopus laevis oocytes injected with Kv1.5-encoding RNA synthesized in vitro
Experimental: Determination of the Activity on the Kv1.5 Channel Human Kv1.5 channels were expressed in xenopus oocytes. For this purpose, firstly oocytes were isolated from Xenopus laevis and defolliculated. Kv1.5-encoding RNA synthesized in vitro was then injected into these oocytes. […] The Kv1.5 channels were in this case usually activated with voltage jumps lasting 500 ms to 0 mV and 40 mV. […] These experiments were carried out at room temperature. […] The substances of the invention were tested by adding them in various concentrations to the bath solution.

pig left atrium [1] = experiment: Effect of Kv1.5 blockers on atrial contractility in anesthetized pigs, sinus rhythm; type: in vivo, German Landrace pigs
Experimental: (§1) A) Test of the Effect of Kv1.5 Blockers on Atrial Contractility in Anesthetized Pigs
(§2) Material and methods: German Landrace pigs were premedicated by an intramuscular injection of 2.5-3.5 mg/kg each of xylazine, tiletamine and zolazepam in a mixing syringe. The anesthesia was induced with pentobarbital (approx. 30 mg/kg i.v.) and maintained by continuous infusion of pentobarbital (12-17 mg/kg/h).
(§3) After induction of anesthesia and after a tracheotomy, the animals were intubated and ventilated with a mixture of ambient air with 40% oxygen.
The ventilation rate and volume were governed by regularly measured blood gas and pH levels. The body temperature was continuously recorded and controlled by a heated underlay and/or red light lamp and/or warming of the breathed air to keep it constant (about 37-38° C.).
The following blood vessels of the pigs were exposed and cannulated:
External jugular vein (anesthesia infusion), carotid artery (introduction of a tip manometer catheter in the left ventricle to record the pressure there), lateral saphenous vein (dosage of test substance), epigastrica cranialis superficialis vein (fluid infusion), femoral artery (peripheral blood pressure recording) and femoral vein (introduction of MAP catheter right atrium).
The parameters responsible for the contractility are determined using two ultrasonic sensors on the left atrium (P/N JP 5-2, Triton Technology®) [references 1 and 2]. These two piezoelectric sensors are implanted in the cranio-caudal direction through punctuate incisions at the extreme edge of the atrium. The incisions were each closed with a U stitch (2-0 Vicryl®). […]
The left atrial systolic shortening (LASS) was determined from the atrial diameter at the start of the active atrial pressure curve and the minimum diameter. […] The maximum steepness of the contraction curve was determined by importing the raw data points to Microsoft Excel for calculation of the maximum steepness of the curve. In order to exclude breathing-related variations, at least 10 cardiac cycles were analyzed. […]

pig left atrium [2] = experiment: Effect on atrial contractility in anesthetized pigs after one hour of induced atrial fibrillation; type: in vivo, German Landrace pigs; conditions: 1 mg/kg i.v., after 1 hour atrial fibrillation
Experimental: as §1, §2, §3
In a further series of experiments, the test substance was administered only after one hour of atrial fibrillation induced by persistent high-frequency stimulation (1200 beats/min) of the right atrium. In this case, the parameters of atrial contractility were recorded before/after the period of fibrillation and after administration of the test substance and compared with those after the vehicle control.
The ventilation rate and volume were governed by regularly measured blood gas and pH levels. The body temperature was continuously recorded and controlled by a heated underlay and/or red light lamp and/or warming of the breathed air to keep it constant (about 37-38° C.). […]
The parameters responsible for the contractility are determined using two ultrasonic sensors on the left atrium (P/N JP 5-2, Triton Technology®) [references 1 and 2]. […]

Row | IC50 (Human Kv1.5 channels) [µM] | SMILES | LASS index, absolute value, after administration (pig left atrium [1]; 1 mg/kg i.v., sinus rhythm) | LASS index, increase in % (pig left atrium [1]; 1 mg/kg i.v., sinus rhythm, after vs before administration) | atrial function (LASS index and LACC steepness), in words (pig left atrium [1]; normal sinus rhythm) | LASS index, absolute values (pig left atrium [2]) | LASS index, in % of the initial value (pig left atrium [2]; initial value = before AF) [%]
1 | 10 | CCCCS(=O)(=O)Nc1ccccc1C(=O)N[C@H](CC)c1ccc(OC)nc1 (single isomer, unassigned) [Example 5] | – | – | – | – | –
2 | – | COc1ccc(CC(=O)NCc2ccccc2-c2ccccc2C(=O)NCCc2cccnc2)cc1 [Example 1, N-(2-pyridin-3-ylethyl)-2′-{[2-(4-methoxyphenyl)acetylamino]-methyl}biphenyl-2-carboxamide] | 0.206 ± 0.017 | +29.5% | statistically significant improvement | 0.203 | 116
